## Ab-14 heavy chain CDR variants: yeast mating affinities

Data: MIT Lincoln Laboratory AlphaSeq set, Engelhart et al. 2022, doi:10.1038/s41597-022-01779-4, as distributed in FLAb.

Antigen: PDVDLGDISGINAS, a 14-residue peptide of the SARS-CoV-2 spike HR2 region.

Parent: Ab-14, a human scFv built as VH, a 15-residue (Gly4Ser)3 linker, VL. Only the CDRs of the heavy chain vary.
VH: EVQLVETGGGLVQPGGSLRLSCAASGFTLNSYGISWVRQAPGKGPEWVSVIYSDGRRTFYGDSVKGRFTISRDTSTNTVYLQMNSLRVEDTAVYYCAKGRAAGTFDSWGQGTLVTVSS
VL: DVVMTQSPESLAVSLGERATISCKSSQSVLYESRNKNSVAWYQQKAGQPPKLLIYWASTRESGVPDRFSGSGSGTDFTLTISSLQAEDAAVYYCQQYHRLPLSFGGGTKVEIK

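The library (AAYL49) carries one to three amino acid substitutions per variant, with no insertions or deletions. The assay is AlphaSeq: two haploid yeast populations carry antibody and antigen on their surface. Pairs that bind mate more often; barcode pairs of the diploids are counted by sequencing. The ratio of observed to expected reads was calibrated, replicate by replicate, on BCL2-family standards whose Kd was known from biolayer interferometry. There are three technical replicates.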

Changes read parent residue, position, new residue, counted from the first residue of the VH shown.
Affinities are written as log10 Kd with Kd in nM; a lower number is a better binder.
Replicates are averaged; those with no signal do not enter the mean.
"not detected" means that the variant was in the library but no mating with the target was seen in any replicate; the authors take this as a sign of poor binding, and no number exists.
Entries are sorted by rising average, undetected variants last.
As a blank, each scFv also met three strains without target: over library AAYL49, 15% of these pairings were detected, typically at 4.06 and seldom below 2.83.

changes,"log10 Kd (nM), mean",seen in
S31D/A101Y,0.06,3 of 3
A102P/F105T/S107V,0.63,3 of 3
G61H/D106K/S107F,0.96,3 of 3
F27I/T28S/R56H,0.98,3 of 3
F105N/S107T,1.22,3 of 3
T28L/S63T,1.36,3 of 3
R57H/A101I,1.64,3 of 3
T58S/S63T,1.95,3 of 3
G26K/F27T/D106F,2.10,3 of 3
T58K/F59N/G61M,2.53,3 of 3
T28D/I34F/S107Y,2.58,1 of 3
G33D/I51V/A101V,2.75,1 of 3
G26F/D106W,2.82,3 of 3
V50W/R57I/D106A,2.92,1 of 3
T28E/V50L,3.02,3 of 3
T28F/T58N/S107N,3.19,1 of 3
D54T/G61A/R100S,3.22,3 of 3
R56A/R57P/G103Y,3.31,2 of 3
Y52P/F59Q/A102P,3.37,1 of 3
L29K/K65M/F105A,3.45,2 of 3
G33P/V50K/D54A,3.58,1 of 3
I34E/Y52R/A102N,3.60,1 of 3
D54Q/G99C/A102H,3.61,2 of 3
G26T/D62Y/G103M,3.61,2 of 3
D62I/F105L,3.64,3 of 3
G26N/G33I/Y60Q,3.79,3 of 3
L29Y/Y60G/R100L,3.84,2 of 3
V64L/G103H/F105H,3.91,2 of 3
R57W/A101I/D106I,3.92,1 of 3
T28I/S31Q/I34S,3.93,1 of 3
R57N/F59A/F105Y,4.22,1 of 3
L29N/G55T,4.29,1 of 3
D54N/G103A/S107Y,4.30,1 of 3
G26N/I34Q/D62I,4.31,1 of 3
G33R/D54M/R57H,4.32,1 of 3
T28I/Y60C/G61L,4.39,3 of 3
N30V/Y60I/S107A,4.61,2 of 3
F27Y/Y52A/Y60I,4.62,3 of 3
S63E/G99L/S107F,4.81,2 of 3
F27Y/Y60E/G61E,4.89,2 of 3
F27G/I34V/D106M,4.93,1 of 3
S35L/D54H/G99H,5.01,3 of 3
S35F/Y52Q/G55D,5.15,2 of 3
N30H/I51W/F105S,5.19,3 of 3
G26I/Y32C/I51K,5.85,1 of 3
L29E/D54F/G61K,not detected,0 of 3
K65G/T104C/S107F,not detected,0 of 3
T28D/F59K/T104L,not detected,0 of 3
G33F/V64N/R100Y,not detected,0 of 3
R57I/A101T,not detected,0 of 3
F27C/T58N/S63G,not detected,0 of 3
V50H/Y60E/A102D,not detected,0 of 3
N30R/G33H/I34S,not detected,0 of 3
G33Q/R100L/A101Q,not detected,0 of 3
D62C/F105Q/D106T,not detected,0 of 3
F27C/S35E/S53F,not detected,0 of 3
S35E/V50Q/D62R,not detected,0 of 3
F27L/D106N,not detected,0 of 3
F27N/F59T,not detected,0 of 3
S53R/F59C/D106I,not detected,0 of 3
Y32D/Y52H/K65A,not detected,0 of 3
G33L/R56N/K65C,not detected,0 of 3
S31Y/G99P/T104Y,not detected,0 of 3
R57P/A101W/T104Y,not detected,0 of 3
R57V/T58M/G103K,not detected,0 of 3
N30W/D54Q/R57D,not detected,0 of 3
Y32D/S63T/A101G,not detected,0 of 3
F27L/T28F/R57N,not detected,0 of 3
V50L/T104P/D106S,not detected,0 of 3
T58G/K65D/G103Q,not detected,0 of 3
T58M/G103D/S107V,not detected,0 of 3
N30A/R57M/G103A,not detected,0 of 3
G26W/V50G/D62A,not detected,0 of 3
Y32P/D106P/S107W,not detected,0 of 3
R56D/D62A/G103T,not detected,0 of 3
T28Q/S31F/S35A,not detected,0 of 3
L29P/S31V/G61M,not detected,0 of 3
S53Q/G61K,not detected,0 of 3
V50D/A101F,not detected,0 of 3

The first 5 entries again:

{"changes": "S31D/A101Y", "log10 Kd (nM), mean": "0.06", "seen in": "3 of 3"}
{"changes": "A102P/F105T/S107V", "log10 Kd (nM), mean": "0.63", "seen in": "3 of 3"}
{"changes": "G61H/D106K/S107F", "log10 Kd (nM), mean": "0.96", "seen in": "3 of 3"}
{"changes": "F27I/T28S/R56H", "log10 Kd (nM), mean": "0.98", "seen in": "3 of 3"}
{"changes": "F105N/S107T", "log10 Kd (nM), mean": "1.22", "seen in": "3 of 3"}